## Ab-14 heavy chain CDR variants: yeast mating affinities

From the AlphaSeq antibody data of Engelhart et al. 2022 (doi:10.1038/s41597-022-01779-4), copy in the FLAb collection.

Target peptide (SARS-CoV-2 spike, HR2 region): PDVDLGDISGINAS

Each scFv is VH, three GGGGS repeats, VL, as in the parent Ab-14, and differs from it in the CDRs of the heavy chain only.
VH: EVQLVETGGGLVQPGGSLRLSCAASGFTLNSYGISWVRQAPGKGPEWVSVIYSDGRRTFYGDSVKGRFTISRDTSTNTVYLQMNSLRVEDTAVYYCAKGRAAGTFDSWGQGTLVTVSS
VL: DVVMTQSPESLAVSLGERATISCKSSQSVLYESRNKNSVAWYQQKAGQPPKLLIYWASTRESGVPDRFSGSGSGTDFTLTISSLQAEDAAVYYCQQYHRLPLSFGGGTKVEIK

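Phage display of a naive human antibody library on the peptide gave the parent. The library (AAYL49) carries one to three amino acid substitutions per variant, with no insertions or deletions. AlphaSeq pools MATa yeast showing the antibodies with MATalpha yeast showing the peptide. After mating in shaken culture at 30 °C for 16 h, diploids were selected and their barcode pairs sequenced. Read counts were normalised to the haploid input and turned into Kd by a linear fit to BCL2-family pairs of known affinity, for each replicate. There are three technical replicates.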

The parent's heavy chain CDRs are GFTLNSYGIS, VIYSDGRRTFYGDSVK, GRAAGTFDS; each variant's own CDRs replace them letter for letter.
Every variant below is changed at D54 of the VH (sequential numbering).
The Kd shown is the geometric mean over detected replicates; a lower Kd is a better binder.
An entry "nd" has no value in the source: the pair was not observed among the diploids in any replicate. This suggests poor binding but is not conclusive.
The list is sorted by this average, lowest first, undetected variants last.
For reference, the parent read 4.4 nM as the reference entry and 13 µM (one replicate of three) as a member of this library.

Variant GFTLNSYGIS / VVYSAGKRTFYGDSVK / GRAAGTFDS showed 440 nM (1 of 3 replicates; controls 1 of 9).
Variant GFTLNSYGIS / VIYSEGRRTFRGRSVK / GRAAGTFDS showed 730 nM (1 of 3 replicates; controls 1 of 9).
Variant GFTLNSYGIS / VIYSRGRRTFYGNSVK / GRAAGTFDS showed 2.1 µM (1 of 3 replicates; controls 1 of 9).
Variant GFTLNSYGII / VIYSQGRRTFYGMSVK / GRAAGTFDS showed 2.2 µM (1 of 3 replicates; controls 4 of 9).
Variant GFTLNSYGIS / VIYSEGRRTFYGDSLK / GRAAGTFDS showed 4.6 µM (1 of 3 replicates; controls 0 of 9).
Variant GFTLNSYGIS / GGYSWGRRTFYGDSVK / GRAAGTFDS showed 8.3 µM (2 of 3 replicates; controls 1 of 9).
Variant GFTLNSYGIS / VIYSGGRRTFYGDSVK / GRAAGTFDS showed 8.8 µM (1 of 3 replicates; controls 0 of 9).
Variant GFTLNSYGIS / VIYTGGRRTFYGDSVK / GRAAGTFLS showed 20 µM (2 of 3 replicates; controls 3 of 9).
Variant GFTLNSYGIS / VIYSGGHRTFYGDSVK / GRAALTFDS showed 24 µM (1 of 3 replicates; controls 2 of 9).
Variant GFTLNAYGIS / VIYSHGDRTFYGDSVK / GRAAGTFDS showed 48 µM (2 of 3 replicates; controls 0 of 9).
Variant GFTLNSYGIS / VIYSCGRRTFYGDSVW / GRAAGTFDM showed 52 µM (1 of 3 replicates; controls 1 of 9).
Variant GFTLNSYGIS / VMYSVGRRTFYIDSVK / GRAAGTFDS showed 58 µM (1 of 3 replicates; controls 1 of 9).
Variant GFTLNSYGIS / VINSRGRRTFYGDSVK / GRAAGTADS showed 130 µM (2 of 3 replicates; controls 3 of 9).
Variant GFTLISYGIS / VIYSTGRRTFYGDSVK / GRAAGTFDS showed 130 µM (1 of 3 replicates; controls 3 of 9).
Variant GFTLNSYGIS / VIYSHGRRTFYGGSVK / GIAAGTFDS showed nd (0 of 3 replicates; controls 3 of 9).
Variant GFTLNSYGIS / VIYSPQRRTFYGDSVC / GRAAGTFDS showed nd (0 of 3 replicates; controls 0 of 9).
Variant GFTLNSYGIS / VIYSHGMRTFWGDSVK / GRAAGTFDS showed nd (0 of 3 replicates; controls 0 of 9).
Variant GFTLNSYGIQ / VIYSTGRRTFYGDSVK / GRAAGTFDS showed nd (0 of 3 replicates; controls 1 of 9).
Variant GFTFNSYGES / VIYSFGRRTFYGDSVK / GRAAGTFDS showed nd (0 of 3 replicates; controls 0 of 9).
Variant GFTLNSYGIS / VIYSWGRRTFYGDSVK / YRAAGTLDS showed nd (0 of 3 replicates; controls 0 of 9).
Variant GFTLNSYGIS / VIYSGGRRTFYGDSVK / GRAAGTFLV showed nd (0 of 3 replicates; controls 0 of 9).
Variant GFTLNSYGIS / VEYSPGRRTFYGDSVK / GRAAGTFDS showed nd (0 of 3 replicates; controls 0 of 9).
Variant GFTINSYGIS / VIYHCGRRTFYGDSVK / GRAAGTFDS showed nd (0 of 3 replicates; controls 1 of 9).
Variant GFTLNSYGIS / VIYSMGRRTFYGDSVK / GRAAGTFDS showed nd (0 of 3 replicates; controls 0 of 9).
Variant GFTLNIYHIS / VIYSWGRRTFYGDSVK / GRAAGTFDS showed nd (0 of 3 replicates; controls 0 of 9).
Variant GFTLNSYGIS / VIYSHGRRTFYPDSVK / GRAAGTFDR showed nd (0 of 3 replicates; controls 1 of 9).
Variant GFTLNSYGIS / VIYSFGWRTFYGDSVM / GRAAGTFDS showed nd (0 of 3 replicates; controls 0 of 9).
Variant GFTLNSYGIS / VIYSKGRNTFYGDSVK / GRAAGTMDS showed nd (0 of 3 replicates; controls 0 of 9).
Variant GFTLNSYGIS / VRYSVGRRTFYGDSKK / GRAAGTFDS showed nd (0 of 3 replicates; controls 0 of 9).
Variant GFTLNSYGIS / VIYSWGRRTFYGTSVK / GRVAGTFDS showed nd (0 of 3 replicates; controls 1 of 9).
Variant GFTLNSYGIS / VIYSTLRRTFYGDSVK / GRMAGTFDS showed nd (0 of 3 replicates; controls 2 of 9).
Variant GITLNSYGIS / VIYSFGRRTFYGDSVK / GRAAGTFDP showed nd (0 of 3 replicates; controls 0 of 9).
Variant GFTLNSYGIS / VIYSGGRRTFYADSVK / GRAAGTADS showed nd (0 of 3 replicates; controls 1 of 9).
Variant GFTLNSYGIS / VISHYGRRTFYGDSVK / GRAAGTFDS showed nd (0 of 3 replicates; controls 0 of 9).
Variant GFTLNSQGIS / VIYSWGRRTFYGMSVK / GRAAGTFDS showed nd (0 of 3 replicates; controls 0 of 9).
Variant GFCLNSYGIS / VIYSWGRRTFYGDSVV / GRAAGTFDS showed nd (0 of 3 replicates; controls 0 of 9).
Variant GFTLNSYGIS / VIYSTGRRTFYGDSVV / ARAAGTFDS showed nd (0 of 3 replicates; controls 0 of 9).
Variant GFTLNSYGIS / VIYSVGRRTFYGASVK / GRAAGTFDS showed nd (0 of 3 replicates; controls 0 of 9).
Variant GFTLNSYGIS / VIYSEGRRTFYGDSVK / GRAGGTFDG showed nd (0 of 3 replicates; controls 0 of 9).
Variant GFTLNSYGIS / VIYSEGRRTFYCDSVK / GRAANTFDS showed nd (0 of 3 replicates; controls 0 of 9).
Variant GFTLNSYGIS / VIYSCTRWTFYGDSVK / GRAAGTFDS showed nd (0 of 3 replicates; controls 0 of 9).
Variant GFTLNSYHIS / VFYSQGRRTFYGDSVK / GRAAGTFDS showed nd (0 of 3 replicates; controls 0 of 9).
Variant GFTCNSYGIS / VIYSNGRRTFYGYSVK / GRAAGTFDS showed nd (0 of 3 replicates; controls 0 of 9).

The first 5 entries again:

The variant GFTLNSYGIS / VVYSAGKRTFYGDSVK / GRAAGTFDS gave 440 nM (1 of 3 replicates; controls 1 of 9).
The variant GFTLNSYGIS / VIYSEGRRTFRGRSVK / GRAAGTFDS gave 730 nM (1 of 3 replicates; controls 1 of 9).
The variant GFTLNSYGIS / VIYSRGRRTFYGNSVK / GRAAGTFDS gave 2.1 µM (1 of 3 replicates; controls 1 of 9).
The variant GFTLNSYGII / VIYSQGRRTFYGMSVK / GRAAGTFDS gave 2.2 µM (1 of 3 replicates; controls 4 of 9).
The variant GFTLNSYGIS / VIYSEGRRTFYGDSLK / GRAAGTFDS gave 4.6 µM (1 of 3 replicates; controls 0 of 9).

Background: pairings of library AAYL49 with three empty control strains gave a value in 15% of cases (median 11 µM, 5th percentile 680 nM). Values in that range, when seen in few replicates, are hard to tell from nonspecific mating. Also given: how often the same scFv was detected with the empty control strains.